Measurements published in US20230138177A1 (priority 2020, published 2023).

What was measured:
[1] = system: GSK3β; assay: Time course in vitro rabbit reticulocyte transcription/translation of HA-GSK3β (FIG. 7G); conditions: reticulocyte lysate, 300 μM CoCl2
[2] = system: DYRK4; assay: Time course in vitro rabbit reticulocyte transcription/translation of HA-DYRK4 (FIG. 7F); conditions: reticulocyte lysate, 300 μM CoCl2

CoCl2
abolished: proline hydroxylation of GSK3β [1] | tyrosine autophosphorylation of GSK3β [1] | proline hydroxylation of DYRK4 [2] | tyrosine autophosphorylation of DYRK4 [2]
